{
  "source": "paper PMC11739112",
  "about": "“High-affinity promotor binding of YhaJ mediates a low signal leakage for effective DNT detection” (Frontiers in Microbiology, 2024)",
  "target": "the molecule itself",
  "assay": "SEC",
  "data": [
    {"protein": "YhaJ DNA binding domain linked to a linker region (YhaJ-DBD, residues 1-93) (domain or fragment) MAKERALTLEALRVMDAIDRRGSFAAAADELGRVPSALSYTMQKLEEELDVVLFDRSGHRTKFTNVGRMLLERGRVLLEAADKLTTDAEALAR", "values": [
      {"measurement": "stoichiometry N", "value": 2}
    ]}
  ]
}
